The nature of this series: Solubility Profile in Common Organic Solvents. It counts as physicochemical.

On to `CCOc1ccc(-c2ccc(Cn3c(CC(C)(C)C(=O)[O-])c(SC(C)(C)C)c4cc(OCc5ccc(C)cn5)ccc43)cc2)cn1.[Na+]` [Compound 2, sodium 3-[3-(tert-butylsulfanyl)-1-[4-(6-ethoxy-pyridin-3-yl)benzyl]-5-(5-methyl-pyridin-2-yl-methoxy)-1H-indol-2-yl]-2,2-dimethylpropionate], for which the solubility in words entry by setting is: (acetonitrile and isopropanol) “sparingly soluble”; (methanol and ethanol) “very soluble”.

The record behind these values is US20110160249A1, “5-LIPOXYGENASE-ACTIVATING PROTEIN INHIBITOR” (priority 2008, published 2011).
